The numbers were not newly measured in US11826586B2, “Method for dyeing keratin material, comprising the use of an organic C1-C6-alkoxy-silane and an alkalising agent” (Henkel AG & Co. KGaA, priority 2019, dated 2023), which cites them from elsewhere.

For this series the following is noted: 25° C.

For “3,4,5,6-tetrachloro-2-(1,4,5,8-tetrabromo-6-hydroxy-3-oxoxanthen-9-yl)benzoic acid [Acid Red 92]”, the solubility in water entry was “greater than 10 g/L”.
